From patent publication US8895313B2, “Ligands for aggregated tau molecules” (Wista Laboratories Ltd., priority 2008, dated 2014)

Protein sequences, listed by entry. Tags and fused reporters are not part of them. Residues count along the entry.
UniProt P10636, 623-708 limits assumed: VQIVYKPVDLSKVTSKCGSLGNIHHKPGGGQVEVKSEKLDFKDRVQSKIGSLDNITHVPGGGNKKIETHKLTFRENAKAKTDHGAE

Biological target: PHF (paired helical filaments) isolated from the brain of an Alzheimer's disease patient (Homo sapiens, UniProt P10636)
Assay: Competitive binding assay: displacement of primulin fluorescence from PHFs
Conditions: read-out: P50; value in brackets: measured in 10% DMSO; reference ligand; tested form: Na salt
Experimental: The DSB compounds were tested for their ability to bind to PHF in a competition-style assay.
If a test compound that also binds to PHFs with the same or greater affinity is added, it will displace the reference ligand and reduce the fluorescence signal. In the present assay, the reference compound is primulin, which was added at 1 μM. Test compounds were added at concentrations from 0.05 to 1 μM. The P50 for a test compound is defined as the concentration of compound that reduces the primulin signal to 50% of the control value. This value is, therefore, not an absolute affinity, but a relative affinity compared to the affinity of primulin. […]
The assay for ligand activity was performed in 96 well plates (Nunc Cat. No. 236108). […] The concentration of PHFs added was determined for each preparation to give an adequate fluorescence signal, and was typically in the range 1-2 μl/100 μl. […] The control fluorescence, in the absence of PHFs, was also measured in the presence of 10% DMSO.
The fluorescence was measured in a Varian Carey Eclipse Fluorescence Spectrophotometer, with the […] wavelength at 480 nm. Excitation spectra were recorded and corrected by subtraction of the signal measured in the absence of PHFs, using the Varian software. The fluorescence signal at the peak […] wavelength of 420 nm was measured from the corrected spectra. […]

SMILES: Cc1ccc2nc(-c3ccc4nc(-c5ccc(N)cc5)sc4c3)sc2c1S(=O)(=O)O
- IC50: 1000 nM
